Values of other authors in US9061054B2, “ErbB-2 receptor targeting peptide” (The Curators of The University of Missouri, priority 2002, dated 2015).

Details: in vivo; cited from earlier work

Herceptin: humanized monoclonal antibody against ErbB-2
cardiac toxicity: aggravate doxorubicin-induced cardiac dysfunction
